Experimental data taken from patent US20220160820A1, “MODULATORS OF COMPLEMENT ACTIVITY” (Ra Pharmaceuticals, Inc., priority 2019, published 2022).

Key:
[1] = not told
[2] = inferred from published mAb studies, cited from earlier work

Substance: eculizumab
- fraction introduced to upper reservoir diffused to lower reservoir [1]: less than 20%
- Eculizumab biodistribution % ([2]; Bone): 7.27%
- Eculizumab biodistribution % ([2]; Brain): 0.35%
- Eculizumab biodistribution % ([2]; Fat): 4.78%
- Eculizumab biodistribution % ([2]; Heart): 10.2%
- Eculizumab biodistribution % ([2]; Large Intestine): 5.03%
- Eculizumab biodistribution % ([2]; Liver): 12.1%
- Eculizumab biodistribution % ([2]; Lung): 14.9%
- Eculizumab biodistribution % ([2]; Lymph nodes): 8.46%
- Eculizumab biodistribution % ([2]; Muscle): 3.97%
- Eculizumab biodistribution % ([2]; Pancreas): 6.4%
- Eculizumab biodistribution % ([2]; Small Intestine): 5.22%
- Eculizumab biodistribution % ([2]; Spleen): 12.8%
- Eculizumab biodistribution % ([2]; Stomach): 4.98%
- Eculizumab biodistribution % ([2]; Testes): 5.88%
- Eculizumab biodistribution % ([2]; Thymus): 6.62%

Read-outs that look alike come from different tables or passages of the source.
